Values quoted from earlier work, collected in publication PMC11711049 (Cancer Science, 2024).
Values joined by “and” are separate entries in the source; they are usually repeats but may differ in a detail not shown here. Identical values can stand only once.

Tested on: cholangiocarcinoma with an FGFR2 gene fusion or other rearrangement
Settings: cholangiocarcinoma patients; cited from earlier work

C=CC(=O)N1CC[C@H](n2nc(C#Cc3cc(OC)cc(OC)c3)c3c(N)ncnc32)C1 [futibatinib]
median OS: 21.7 months | median PFS: 9.0 months | response rate / ORR: 42% and 41.7%
